From patent publication US11406613B2, “Treatment of osteoarthritis” (ST GEORGE'S HOSPITAL MEDICAL SCHOOL, priority 2016, dated 2022)

What was measured:
hand OA participants [1] = details: result in words
hand OA participants [2] = details: number of adverse events recorded in treatment group

CC(C)C[C@H](CN)CC(=O)O [Pregabalin, (3S)-3-(aminomethyl)-5-methylhexanoic acid]
Analgesic efficacy over placebo relative to duloxetine (AUSCAN pain outcomes and NRS) (hand OA participants [1]): greater analgesic efficacy over placebo than duloxetine over placebo
Side effects: Endocrine/Metabolic (hand OA participants [2]): 1
